Measured values taken from publication PMC4330362, “The ATP-mediated formation of the YgjD–YeaZ–YjeE complex is required for the biosynthesis of tRNA t^6A in Escherichia coli” (Nucleic Acids Research, 2015).

How the values were obtained:
[1] = target: YgjD–YeaZ heterodimer (Escherichia coli K-12) (UniProt P05852)
[2] = target: YjeE (TsaE) (Escherichia coli K-12) (UniProt P0AF67); assay: SEC; gel filtration of YjeE at various time lapses after purification
[3] = target: YjeE (TsaE) (Escherichia coli K-12) (UniProt P0AF67); assay: SEC + other: SAXS; HPLC gel filtration coupled to SAXS; in presence of 1.0 mM ATP and 2.0 mM MgCl2; YgjD–YeaZ and YjeE mixed 1:4
[4] = target: YgjD–YeaZ heterodimer (Escherichia coli K-12) (UniProt P05852); remark: listed apart in the source

kcat of ATP hydrolysis by YgjD–YeaZ–2xYjeE (NADH-coupled ATPase assay, 20°C) [1] [s⁻¹]	percent monomer 18 h after purification [2] [%]	stoichiometry N [2]	stoichiometry N [3]	drop of the in vitro biosynthesis of t^6A (HPLC/MS of digested tRNA) [4] [%]	Substance
0.4	< 20	2	2	–	YjeE (TsaE) (from UniProt P0AF67 1-153) (enzyme)
–	–	–	–	60	YjeE^E108A (from UniProt P0AF67 1-153) (enzyme)
